Earlier results as cited in publication PMC9316761, “Thiosemicarbazide-Substituted Coumarins as Selective Inhibitors of the Tumor Associated Human Carbonic Anhydrases IX and XII” (Molecules, 2022).

By UniProt entry, the sequences of proteins in these tests, tags left out. Residues count along the entry.
UniProt O43570, 25-354: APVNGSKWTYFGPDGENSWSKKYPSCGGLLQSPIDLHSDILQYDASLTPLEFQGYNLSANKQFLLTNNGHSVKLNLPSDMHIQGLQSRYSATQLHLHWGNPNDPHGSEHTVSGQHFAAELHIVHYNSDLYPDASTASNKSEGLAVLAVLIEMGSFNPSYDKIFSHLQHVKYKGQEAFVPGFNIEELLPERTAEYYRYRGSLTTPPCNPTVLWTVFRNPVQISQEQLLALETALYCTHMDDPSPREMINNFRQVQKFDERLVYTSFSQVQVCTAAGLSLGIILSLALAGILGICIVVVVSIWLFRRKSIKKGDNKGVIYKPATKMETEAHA

Legend:
hCA IX = biological target: T1, hCA IX (Homo sapiens, UniProt Q16790); set-up: method as in PMID 19206230; details: cited from earlier work
T1 construct: made in house

hCA XII = hCA XII (Homo sapiens, UniProt O43570); details: read-out: hCA XII (Ki; nM); reference coumarin; cited from earlier work

O=c1ccc2ccccc2o1 [COU, coumarin]
Ki (hCA IX): > 10000 nM | Ki (hCA XII): > 10000 nM
